## scFv variants of Ab-14 (heavy chain) against a SARS-CoV-2 spike peptide

Target peptide (SARS-CoV-2 spike, HR2 region): PDVDLGDISGINAS

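Variants in AAYL49 differ from the parent at up to three CDR positions; double and triple changes were sampled at random. In AlphaSeq, yeast of one mating type display the scFv and yeast of the other type display the target. Binding brings cells together so that they mate, and sequencing counts the barcode pairs among the diploids. Read counts were normalised to the haploid input and turned into Kd by a linear fit to BCL2-family pairs of known affinity, for each replicate. Each pool was mated in three replicate cultures.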

Ab-14 is the parent antibody, in scFv form: VH, then three GGGGS repeats, then VL. The light chain is unchanged in all variants.
VH: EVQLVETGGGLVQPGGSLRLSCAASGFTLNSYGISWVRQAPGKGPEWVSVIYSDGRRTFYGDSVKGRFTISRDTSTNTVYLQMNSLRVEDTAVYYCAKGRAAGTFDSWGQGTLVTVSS
VL: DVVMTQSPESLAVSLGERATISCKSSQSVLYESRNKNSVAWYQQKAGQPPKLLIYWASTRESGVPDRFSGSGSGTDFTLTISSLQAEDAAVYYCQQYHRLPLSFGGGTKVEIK

Variants are written as CDR1, CDR2 and CDR3 of the heavy chain (limits as in the source). Parent: GFTLNSYGIS, VIYSDGRRTFYGDSVK, GRAAGTFDS. Scale: log10 of Kd in nM, estimated from mating counts; low values are strong binders. "n.d." marks a missing value. The strain was present, yet no cells mated with the target were sequenced in that replicate, which points to weak or no binding. Parent in this assay: reference entry 0.65, copy in this library 4.11 (one replicate of three).

{"CDR-H1": "GQTLNSYGIS", "CDR-H2": "TIYSDGRRTFYGDSVK", "CDR-H3": "GRAALTFDS", "replicates, log10 nM": "n.d. / n.d. / n.d.", "signal with controls": "0/9"}
{"CDR-H1": "GFTLNSKGIS", "CDR-H2": "VIYSDGRRFFYGDSVK", "CDR-H3": "PRAAGTFDS", "replicates, log10 nM": "3.66 / 3.06 / n.d.", "signal with controls": "4/9 (3.79)"}
{"CDR-H1": "GFTANSYGIS", "CDR-H2": "VIYSDGRRWFYGDSVK", "CDR-H3": "GRAAGTFDS", "replicates, log10 nM": "3.06 / n.d. / n.d.", "signal with controls": "1/9 (4.64)"}
{"CDR-H1": "GFTLNSYGIS", "CDR-H2": "VIYSGGRRTFYGDSVK", "CDR-H3": "GQRAGTFDS", "replicates, log10 nM": "n.d. / 2.97 / n.d.", "signal with controls": "4/9 (3.64)"}
{"CDR-H1": "GFTLNSYGQS", "CDR-H2": "VIYSDLFRTFYGDSVK", "CDR-H3": "GRAAGTFDS", "replicates, log10 nM": "5.07 / 4.59 / 7.09", "signal with controls": "6/9 (4.95)"}
{"CDR-H1": "MRTLNGYGIS", "CDR-H2": "VIYSDGRRTFYGDSVK", "CDR-H3": "GRAAGTFDS", "replicates, log10 nM": "3.04 / 4.82 / 4.27", "signal with controls": "1/9 (2.70)"}
{"CDR-H1": "GFTLNSYGIS", "CDR-H2": "RIYSDGRRTFYRDSVK", "CDR-H3": "GRAAETFDS", "replicates, log10 nM": "n.d. / n.d. / n.d.", "signal with controls": "1/9 (4.26)"}
{"CDR-H1": "GFDLNSYGIS", "CDR-H2": "VIYYDHRRTFYGDSVK", "CDR-H3": "GRAAGTFDS", "replicates, log10 nM": "2.90 / 2.92 / n.d.", "signal with controls": "1/9 (3.05)"}
{"CDR-H1": "FFTLNSYGIS", "CDR-H2": "VIYSDGRRTFYGDSVK", "CDR-H3": "PRAAGTFCS", "replicates, log10 nM": "n.d. / n.d. / n.d.", "signal with controls": "1/9 (2.65)"}
{"CDR-H1": "GFTLNMYGIS", "CDR-H2": "VIYSDGRRTLYGDSVK", "CDR-H3": "GRAAQTFDS", "replicates, log10 nM": "4.56 / 3.67 / n.d.", "signal with controls": "1/9 (3.66)"}
{"CDR-H1": "EFTLNSLGIS", "CDR-H2": "VIYSDGRRTFYGDSIK", "CDR-H3": "GRAAGTFDS", "replicates, log10 nM": "n.d. / n.d. / n.d.", "signal with controls": "0/9"}
{"CDR-H1": "GFTLNSYGIS", "CDR-H2": "VRYSRGRRTFYGDSVK", "CDR-H3": "GRAAGTNDS", "replicates, log10 nM": "n.d. / n.d. / n.d.", "signal with controls": "1/9 (2.95)"}
{"CDR-H1": "GFTLNSYGIS", "CDR-H2": "VIFSDGMRTFYNDSVK", "CDR-H3": "GRAAGTFDS", "replicates, log10 nM": "3.42 / 4.24 / 3.79", "signal with controls": "6/9 (5.06)"}
{"CDR-H1": "LFTLNSYGIS", "CDR-H2": "VIYSDGRRTFYGDSVK", "CDR-H3": "GRAQETFDS", "replicates, log10 nM": "n.d. / n.d. / n.d.", "signal with controls": "0/9"}
{"CDR-H1": "GFTLNSYGIY", "CDR-H2": "VICSDKRRTFYGDSVK", "CDR-H3": "GRAAGTFDS", "replicates, log10 nM": "n.d. / n.d. / n.d.", "signal with controls": "3/9 (3.56)"}
{"CDR-H1": "GFTLNSYGIS", "CDR-H2": "VIYLDGRRTIYGDSVK", "CDR-H3": "GQAAGTFDS", "replicates, log10 nM": "n.d. / n.d. / n.d.", "signal with controls": "0/9"}
{"CDR-H1": "LFTLNSYGIS", "CDR-H2": "VIYFDGRRTFYGDSHK", "CDR-H3": "GRAAGTFDS", "replicates, log10 nM": "n.d. / n.d. / n.d.", "signal with controls": "3/9 (4.85)"}
{"CDR-H1": "GFTLNSEGIS", "CDR-H2": "VIYSSGRRTFYGDSVK", "CDR-H3": "GRNAGTFDS", "replicates, log10 nM": "n.d. / n.d. / n.d.", "signal with controls": "0/9"}
{"CDR-H1": "GGTLNSYGIS", "CDR-H2": "VPYSDGRRTFYGDSVK", "CDR-H3": "GRAAGTFES", "replicates, log10 nM": "n.d. / 3.78 / n.d.", "signal with controls": "1/9 (3.72)"}
{"CDR-H1": "GSTLNSYGIS", "CDR-H2": "VIYSDGRRTFYGDSVK", "CDR-H3": "ERAAGLFDS", "replicates, log10 nM": "1.48 / 1.61 / 1.51", "signal with controls": "2/9 (3.98)"}
{"CDR-H1": "GFTLNSYGIS", "CDR-H2": "VIYSDGARTFYGDSVK", "CDR-H3": "GWAAGTFDS", "replicates, log10 nM": "0.91 / 1.36 / 1.28", "signal with controls": "1/9 (5.27)"}

Empty control strains, which show no peptide, gave a signal in 15% of pairings with library AAYL49; the median was 4.06 and 95% of these signals were weaker than 2.83. No background was subtracted. Also given: how often the same scFv was detected with the empty control strains, with their mean in brackets.

The measurements come from Engelhart et al. 2022 (doi:10.1038/s41597-022-01779-4) through the FLAb antibody collection.